Tests used:
[1] = target: human α1G T-type channels (Homo sapiens, UniProt O43497); experiment: T-type calcium channel block, whole cell patch clamp, α1G; format: cell-based; details: read-out: α1G; HEK cells stably expressing human α1G; mainly non-inactivated protocol; values above 10,000 nM represented as 10000
[2] = target: human α1H T-type channels (Homo sapiens, UniProt O95180); experiment: T-type calcium channel block, whole cell patch clamp, α1H; format: cell-based; details: read-out: α1H; HEK cells stably expressing human α1H; mainly non-inactivated protocol; values above 10,000 nM represented as 10000

By UniProt entry, the sequences of proteins in these tests, tags left out.
UniProt O43497, whole entry: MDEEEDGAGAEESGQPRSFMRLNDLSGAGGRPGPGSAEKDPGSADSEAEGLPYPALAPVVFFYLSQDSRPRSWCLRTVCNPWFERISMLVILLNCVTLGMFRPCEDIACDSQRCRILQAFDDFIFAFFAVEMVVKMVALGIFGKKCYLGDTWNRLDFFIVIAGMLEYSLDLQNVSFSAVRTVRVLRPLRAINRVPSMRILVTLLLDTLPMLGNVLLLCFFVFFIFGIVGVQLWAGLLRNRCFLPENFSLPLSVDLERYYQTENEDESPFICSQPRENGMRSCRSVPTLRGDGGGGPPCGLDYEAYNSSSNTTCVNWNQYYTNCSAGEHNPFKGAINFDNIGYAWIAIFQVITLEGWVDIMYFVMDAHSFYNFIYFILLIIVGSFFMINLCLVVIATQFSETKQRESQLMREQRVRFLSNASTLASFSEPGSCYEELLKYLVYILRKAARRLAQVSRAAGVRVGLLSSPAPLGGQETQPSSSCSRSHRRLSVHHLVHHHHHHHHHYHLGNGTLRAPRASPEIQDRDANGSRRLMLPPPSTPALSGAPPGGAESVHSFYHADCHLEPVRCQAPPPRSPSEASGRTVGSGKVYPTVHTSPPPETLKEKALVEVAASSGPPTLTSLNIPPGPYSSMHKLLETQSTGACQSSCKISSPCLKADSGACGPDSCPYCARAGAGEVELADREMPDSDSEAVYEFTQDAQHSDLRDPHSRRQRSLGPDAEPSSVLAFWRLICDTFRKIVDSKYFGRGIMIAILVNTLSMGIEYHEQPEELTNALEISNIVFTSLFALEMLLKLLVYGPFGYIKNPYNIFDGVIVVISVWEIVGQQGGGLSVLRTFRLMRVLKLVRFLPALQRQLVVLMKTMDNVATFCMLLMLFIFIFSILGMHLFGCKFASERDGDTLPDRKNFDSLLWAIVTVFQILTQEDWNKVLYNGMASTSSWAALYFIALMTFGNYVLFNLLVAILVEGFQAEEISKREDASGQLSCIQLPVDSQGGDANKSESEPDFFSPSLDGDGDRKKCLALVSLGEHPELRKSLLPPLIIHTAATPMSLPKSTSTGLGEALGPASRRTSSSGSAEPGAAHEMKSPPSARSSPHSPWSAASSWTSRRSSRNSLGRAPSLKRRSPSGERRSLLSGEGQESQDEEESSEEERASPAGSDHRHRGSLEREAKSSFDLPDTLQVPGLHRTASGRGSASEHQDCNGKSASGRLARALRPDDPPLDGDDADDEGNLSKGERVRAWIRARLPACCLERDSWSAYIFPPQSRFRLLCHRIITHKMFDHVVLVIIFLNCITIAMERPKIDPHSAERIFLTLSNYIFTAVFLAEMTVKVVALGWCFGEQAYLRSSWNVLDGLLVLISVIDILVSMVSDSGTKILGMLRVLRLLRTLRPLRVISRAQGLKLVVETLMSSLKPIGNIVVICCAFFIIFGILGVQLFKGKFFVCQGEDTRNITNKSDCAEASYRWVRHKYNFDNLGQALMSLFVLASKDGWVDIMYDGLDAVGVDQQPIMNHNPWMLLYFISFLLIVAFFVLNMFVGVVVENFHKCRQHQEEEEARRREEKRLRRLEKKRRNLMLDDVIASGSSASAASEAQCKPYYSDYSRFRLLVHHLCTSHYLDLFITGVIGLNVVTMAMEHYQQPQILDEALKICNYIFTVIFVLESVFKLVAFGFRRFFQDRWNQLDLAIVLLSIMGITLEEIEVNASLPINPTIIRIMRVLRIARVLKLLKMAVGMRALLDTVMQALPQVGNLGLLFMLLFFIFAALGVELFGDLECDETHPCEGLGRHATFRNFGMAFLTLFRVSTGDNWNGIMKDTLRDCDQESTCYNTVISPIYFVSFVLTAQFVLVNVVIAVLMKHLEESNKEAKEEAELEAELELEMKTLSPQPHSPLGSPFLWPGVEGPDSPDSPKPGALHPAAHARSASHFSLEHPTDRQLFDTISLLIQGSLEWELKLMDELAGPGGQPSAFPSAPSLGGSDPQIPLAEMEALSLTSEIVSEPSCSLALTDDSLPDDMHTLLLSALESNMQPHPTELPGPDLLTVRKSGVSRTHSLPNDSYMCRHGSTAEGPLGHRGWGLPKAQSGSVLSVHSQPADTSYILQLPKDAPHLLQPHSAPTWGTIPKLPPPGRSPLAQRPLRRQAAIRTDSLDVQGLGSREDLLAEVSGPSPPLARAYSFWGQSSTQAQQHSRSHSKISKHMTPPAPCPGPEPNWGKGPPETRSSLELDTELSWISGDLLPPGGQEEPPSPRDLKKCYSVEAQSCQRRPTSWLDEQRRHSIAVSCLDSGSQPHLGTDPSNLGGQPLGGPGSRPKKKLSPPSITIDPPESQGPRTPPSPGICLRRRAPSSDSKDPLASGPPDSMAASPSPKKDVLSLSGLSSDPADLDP
UniProt O95180, whole entry: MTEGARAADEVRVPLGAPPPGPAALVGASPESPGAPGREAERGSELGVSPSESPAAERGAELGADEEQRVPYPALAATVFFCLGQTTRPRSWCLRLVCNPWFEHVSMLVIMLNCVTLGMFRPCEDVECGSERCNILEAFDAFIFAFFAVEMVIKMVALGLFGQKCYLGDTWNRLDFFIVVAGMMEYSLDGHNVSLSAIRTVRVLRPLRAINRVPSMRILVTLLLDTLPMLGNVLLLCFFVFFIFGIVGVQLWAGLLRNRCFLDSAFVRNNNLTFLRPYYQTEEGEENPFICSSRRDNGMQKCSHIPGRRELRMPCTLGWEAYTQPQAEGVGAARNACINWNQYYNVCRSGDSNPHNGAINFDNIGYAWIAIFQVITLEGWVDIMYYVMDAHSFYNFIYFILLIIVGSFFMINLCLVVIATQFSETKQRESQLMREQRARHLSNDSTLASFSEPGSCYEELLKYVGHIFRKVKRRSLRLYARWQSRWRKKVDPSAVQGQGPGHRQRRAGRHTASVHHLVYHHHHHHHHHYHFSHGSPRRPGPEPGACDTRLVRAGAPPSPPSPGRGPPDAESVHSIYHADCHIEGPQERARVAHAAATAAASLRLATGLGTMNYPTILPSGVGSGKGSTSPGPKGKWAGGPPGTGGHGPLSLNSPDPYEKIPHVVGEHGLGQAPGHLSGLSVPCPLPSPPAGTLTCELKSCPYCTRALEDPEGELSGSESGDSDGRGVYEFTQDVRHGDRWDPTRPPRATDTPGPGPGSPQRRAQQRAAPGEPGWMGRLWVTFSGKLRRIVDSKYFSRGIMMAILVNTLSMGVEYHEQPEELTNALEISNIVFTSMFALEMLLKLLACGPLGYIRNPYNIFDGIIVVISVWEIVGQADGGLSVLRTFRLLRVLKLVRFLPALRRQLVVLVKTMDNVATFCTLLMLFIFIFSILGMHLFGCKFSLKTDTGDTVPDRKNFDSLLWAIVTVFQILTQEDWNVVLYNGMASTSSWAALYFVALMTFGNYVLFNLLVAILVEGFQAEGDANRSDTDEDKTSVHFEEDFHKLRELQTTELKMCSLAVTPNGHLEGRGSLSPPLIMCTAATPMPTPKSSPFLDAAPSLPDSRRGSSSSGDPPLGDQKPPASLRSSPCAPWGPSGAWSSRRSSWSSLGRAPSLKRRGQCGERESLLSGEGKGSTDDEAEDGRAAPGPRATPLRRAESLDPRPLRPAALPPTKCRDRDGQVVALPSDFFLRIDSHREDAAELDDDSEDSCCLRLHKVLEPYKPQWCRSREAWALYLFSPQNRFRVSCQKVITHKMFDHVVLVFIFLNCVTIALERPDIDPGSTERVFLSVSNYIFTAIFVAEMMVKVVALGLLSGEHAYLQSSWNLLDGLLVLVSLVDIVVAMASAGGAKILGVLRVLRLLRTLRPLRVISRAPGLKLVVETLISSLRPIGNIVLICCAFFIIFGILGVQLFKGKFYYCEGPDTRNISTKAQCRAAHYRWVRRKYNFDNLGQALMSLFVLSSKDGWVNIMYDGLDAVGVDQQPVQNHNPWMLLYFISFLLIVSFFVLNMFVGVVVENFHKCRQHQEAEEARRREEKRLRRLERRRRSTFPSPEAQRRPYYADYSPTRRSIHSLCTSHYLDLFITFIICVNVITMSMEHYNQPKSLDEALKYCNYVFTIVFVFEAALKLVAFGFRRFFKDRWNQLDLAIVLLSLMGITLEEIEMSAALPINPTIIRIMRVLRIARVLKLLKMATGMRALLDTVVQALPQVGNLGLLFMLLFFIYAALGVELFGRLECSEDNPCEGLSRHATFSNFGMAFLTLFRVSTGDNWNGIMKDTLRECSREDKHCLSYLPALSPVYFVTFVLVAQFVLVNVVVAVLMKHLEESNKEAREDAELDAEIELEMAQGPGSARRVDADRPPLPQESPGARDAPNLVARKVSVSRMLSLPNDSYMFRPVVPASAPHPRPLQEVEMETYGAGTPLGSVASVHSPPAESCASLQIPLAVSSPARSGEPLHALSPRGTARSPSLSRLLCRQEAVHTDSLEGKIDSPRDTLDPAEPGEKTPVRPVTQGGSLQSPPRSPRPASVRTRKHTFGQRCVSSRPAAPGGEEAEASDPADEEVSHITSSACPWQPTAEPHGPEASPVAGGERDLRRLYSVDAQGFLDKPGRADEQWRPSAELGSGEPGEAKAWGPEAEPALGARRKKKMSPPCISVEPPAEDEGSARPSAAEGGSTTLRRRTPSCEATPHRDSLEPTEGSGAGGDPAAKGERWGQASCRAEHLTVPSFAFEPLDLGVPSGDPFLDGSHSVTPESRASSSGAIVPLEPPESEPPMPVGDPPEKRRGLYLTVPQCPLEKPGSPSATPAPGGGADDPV

| SMILES | IC50 [1] [nM] | IC50 [2] [nM] |
| --- | --- | --- |
| CC(C)(CNC(=O)c1ccc(Oc2ccc(Cl)cc2)cc1)S(=O)(=O)c1cccc(C(F)(F)F)c1 | 540 | 1760 |
| CC(C)(C(=O)Nc1ccc(Oc2ccc(F)c(C(F)(F)F)c2)nc1)S(=O)(=O)c1cccc(C(F)(F)F)c1 | 370 | 1360 |
| Cc1c(OC(C)C)ncnc1C(=O)NCCC(C)(C)S(=O)(=O)c1cccc(C(F)(F)F)c1 | 620 | 3080 |
| CC(C)(CNS(=O)(=O)c1ccc(N2CCCC2=O)cc1)S(=O)(=O)c1cccc(C(F)(F)F)c1 | 900 | > 10000 |

From patent US20120245137A1 (Zalicus Pharmaceuticals Ltd., priority 2009, published 2012)
